Measurements published in patent US10196386B2, “Compounds having muscarinic receptor antagonist and beta2 adrenergic receptor agonist activity” (priority 2016, dated 2019).

The chains behind the UniProt entries cited, without tags or fusion partners.
UniProt P20309, whole entry, looked up: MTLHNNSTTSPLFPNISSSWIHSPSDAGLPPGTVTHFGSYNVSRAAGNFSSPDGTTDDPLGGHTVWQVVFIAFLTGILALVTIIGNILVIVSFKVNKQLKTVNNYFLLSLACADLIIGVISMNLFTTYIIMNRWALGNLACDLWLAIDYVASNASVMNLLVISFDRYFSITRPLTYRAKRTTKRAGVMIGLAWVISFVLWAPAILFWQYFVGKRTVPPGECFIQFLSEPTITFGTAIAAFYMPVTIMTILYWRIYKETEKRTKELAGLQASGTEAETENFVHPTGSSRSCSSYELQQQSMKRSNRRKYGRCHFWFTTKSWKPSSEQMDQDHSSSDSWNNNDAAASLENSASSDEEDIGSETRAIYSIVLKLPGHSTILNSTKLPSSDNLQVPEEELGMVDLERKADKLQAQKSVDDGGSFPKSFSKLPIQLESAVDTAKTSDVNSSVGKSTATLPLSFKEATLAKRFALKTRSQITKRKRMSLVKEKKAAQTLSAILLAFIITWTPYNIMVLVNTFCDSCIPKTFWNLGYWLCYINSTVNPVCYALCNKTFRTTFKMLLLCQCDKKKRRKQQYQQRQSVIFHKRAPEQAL

molecular target: Human M3 receptor (Homo sapiens, UniProt P20309); experiment: M3 receptor radioligand binding assay; conditions: read-out: M3 Range; binding affinity class, human M3 receptor membranes, [N-methyl-3H] Scopolamine Methyl Chloride

SMILES	IC50
CN1CCC(OC(=O)[C@](O)(c2ccccc2)c2cccc(-c3ccc(CNC(=O)c4ccc(CNC[C@H](O)c5ccc(O)c6[nH]c(=O)ccc56)cc4)s3)c2)CC1 [Compound 2, 1-Methylpiperidin-4-yl (S)-2-hydroxy-2-(3-(5-((4-((((R)-2-hydroxy-2-(8-hydroxy-2-oxo-1,2-dihydroquinolin-5-yl)ethyl)amino)methyl)benzamido)-methyl)thiophen-2-yl)phenyl)-2-phenylacetate]	0.3 to 3 nM
O=C(NCc1ccc(-c2cccc([C@](O)(C(=O)OC[C@H]3CCCN(Cc4ccccc4)C3)c3ccccc3)c2)s1)c1ccc(CNC[C@H](O)c2ccc(O)c3[nH]c(=O)ccc23)cc1 [Compound 2C, ((S)-1-Benzylpiperidin-3-yl)methyl (S)-2-hydroxy-2-(3-(5-((4-((((R)-2-hydroxy-2-(8-hydroxy-2-oxo-1,2-dihydroquinolin-5-yl)ethyl)amino)-methyl)benzamido)methyl)thiophen-2-yl)phenyl)-2-phenylacetate]	> 3 nM
O=C(NCc1ccc(-c2cccc([C@](O)(C(=O)OC3CCN(Cc4ccccc4)CC3)c3ccccc3)c2)s1)c1ccc(CNC[C@H](O)c2ccc(O)c3[nH]c(=O)ccc23)cc1 [Compound 2F, 1-Benzylpiperidin-4-yl (S)-2-hydroxy-2-(3-(5-((4-((((R)-2-hydroxy-2-(8-hydroxy-2-oxo-1,2-dihydroquinolin-5-yl)ethyl)amino)methyl)-benzamido)methyl)thiophen-2-yl)phenyl)-2-phenylacetate]	0.3 to 3 nM
